The target in the test is Adenosine receptor A1 (Rattus norvegicus) (UniProt P25099). As to the kind of experiment: Ability to displace [3H]DPCPX from Adenosine A1 receptor in rat cortical membrane at 10e-5 M. It is filed as cell membranes.

By UniProt entry, the sequences of proteins in these tests, tags left out.
UniProt P25099, whole entry: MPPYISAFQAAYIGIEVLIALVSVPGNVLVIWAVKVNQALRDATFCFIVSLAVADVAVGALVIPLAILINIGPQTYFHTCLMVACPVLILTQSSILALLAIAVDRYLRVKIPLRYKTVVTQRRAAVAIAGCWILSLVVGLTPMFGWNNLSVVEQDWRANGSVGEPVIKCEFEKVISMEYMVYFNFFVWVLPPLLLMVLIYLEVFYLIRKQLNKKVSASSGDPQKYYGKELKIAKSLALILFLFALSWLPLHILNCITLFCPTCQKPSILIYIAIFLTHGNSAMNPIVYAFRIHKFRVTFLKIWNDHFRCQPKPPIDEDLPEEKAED

Molecules are shown by their SMILES.

In the case of `CCCCC#Cc1nc(N)c2ncn([C@@H]3O[C@H](CO)[C@@H](O)[C@H]3O)c2n1`, the Displacement was determined as 63.7%.

The values above are taken from ChEMBL document CHEMBL1135807, “2,5'-Disubstituted adenosine derivatives: evaluation of selectivity and efficacy for the adenosine A(1), A(2A), and A(3) receptor” (J Med Chem, 2002).
